Reference: patent publication US11236378B2 (priority 2015, dated 2022)

Chains of the proteins cited; added tags and fusions are not shown. Lines headed by an entry give the natural chain unless they say otherwise; changes in a name come on top.
UniProt P05067: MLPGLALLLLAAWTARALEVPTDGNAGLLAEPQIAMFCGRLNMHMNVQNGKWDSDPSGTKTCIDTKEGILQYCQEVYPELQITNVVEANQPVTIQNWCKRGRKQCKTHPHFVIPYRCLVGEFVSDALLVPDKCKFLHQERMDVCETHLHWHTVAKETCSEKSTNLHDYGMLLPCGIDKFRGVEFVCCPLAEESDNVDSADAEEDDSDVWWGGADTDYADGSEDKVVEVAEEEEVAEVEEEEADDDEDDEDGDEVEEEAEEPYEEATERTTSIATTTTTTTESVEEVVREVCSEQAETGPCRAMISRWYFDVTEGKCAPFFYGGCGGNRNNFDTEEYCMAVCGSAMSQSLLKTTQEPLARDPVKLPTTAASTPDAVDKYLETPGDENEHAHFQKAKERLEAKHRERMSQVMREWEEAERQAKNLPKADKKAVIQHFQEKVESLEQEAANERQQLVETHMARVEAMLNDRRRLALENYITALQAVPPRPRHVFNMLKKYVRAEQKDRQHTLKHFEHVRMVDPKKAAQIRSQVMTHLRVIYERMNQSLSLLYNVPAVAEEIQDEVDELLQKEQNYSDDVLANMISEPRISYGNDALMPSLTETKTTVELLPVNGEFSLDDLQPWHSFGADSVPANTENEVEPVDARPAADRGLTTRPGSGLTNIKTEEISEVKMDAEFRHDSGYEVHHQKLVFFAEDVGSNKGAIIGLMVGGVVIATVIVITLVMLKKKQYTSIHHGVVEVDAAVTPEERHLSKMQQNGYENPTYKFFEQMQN

Experiments:
HEK293T-APP cells = experiment: Aβ42 secretion detected in HEK293T-APP cells (ELISA of culture medium); format: cell-based, human; conditions: class symbols +, key not given
Aβ42 = Aβ42 (Homo sapiens, UniProt P05067); experiment: Liposome experiment: Aβ42 aggregation/oligomerization (immunoblot)

Row | Compound | Activity (HEK293T-APP cells) | facilitation effect on oligomerization of Aβ42 at high concentration (Aβ42; 80 μM compared to 40 μM) | facilitation effect on Aβ42 aggregation in liposomes compared with other lipids (Aβ42; compared with PI and PI4,5P) | oligomerization of Aβ42 in liposomes (Aβ42; varying PI4P concentration)
1 | O=[As]c1cccc2cc3ccccc3cc12 (stereo not shown) | + + | – | – | –
2 | phosphatidylinositol 4-phosphate | – | the facilitation effect on oligomerization of Aβ42 decreases as compared to a concentration of 40 μM | significantly stronger than PI and PI4,5P | facilitates oligomerization of Aβ42 in liposomes in a concentration dependent manner
